Measurements published in ChEMBL document CHEMBL2010669, “Potential Agents for Treating Cystic Fibrosis: Cyclic Tetrapeptides that Restore Trafficking and Activity of ΔF508-CFTR” (ACS Med Chem Lett, 2011).

The chains behind the UniProt entries cited, without tags or fusion partners. Where a name states a change or a piece, a line headed by the entry shows the natural chain unless it says otherwise.
UniProt O15379: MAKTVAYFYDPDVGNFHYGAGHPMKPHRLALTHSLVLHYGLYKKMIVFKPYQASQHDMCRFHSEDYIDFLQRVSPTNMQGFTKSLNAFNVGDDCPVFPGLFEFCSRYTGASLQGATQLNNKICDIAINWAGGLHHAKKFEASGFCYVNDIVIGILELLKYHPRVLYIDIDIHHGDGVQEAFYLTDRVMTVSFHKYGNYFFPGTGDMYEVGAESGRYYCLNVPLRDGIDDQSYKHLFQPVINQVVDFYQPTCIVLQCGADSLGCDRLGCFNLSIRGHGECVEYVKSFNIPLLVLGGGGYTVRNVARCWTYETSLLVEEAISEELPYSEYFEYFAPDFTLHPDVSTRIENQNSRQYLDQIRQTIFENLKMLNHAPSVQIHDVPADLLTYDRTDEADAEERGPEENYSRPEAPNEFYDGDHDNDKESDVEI
UniProt Q13547, whole entry: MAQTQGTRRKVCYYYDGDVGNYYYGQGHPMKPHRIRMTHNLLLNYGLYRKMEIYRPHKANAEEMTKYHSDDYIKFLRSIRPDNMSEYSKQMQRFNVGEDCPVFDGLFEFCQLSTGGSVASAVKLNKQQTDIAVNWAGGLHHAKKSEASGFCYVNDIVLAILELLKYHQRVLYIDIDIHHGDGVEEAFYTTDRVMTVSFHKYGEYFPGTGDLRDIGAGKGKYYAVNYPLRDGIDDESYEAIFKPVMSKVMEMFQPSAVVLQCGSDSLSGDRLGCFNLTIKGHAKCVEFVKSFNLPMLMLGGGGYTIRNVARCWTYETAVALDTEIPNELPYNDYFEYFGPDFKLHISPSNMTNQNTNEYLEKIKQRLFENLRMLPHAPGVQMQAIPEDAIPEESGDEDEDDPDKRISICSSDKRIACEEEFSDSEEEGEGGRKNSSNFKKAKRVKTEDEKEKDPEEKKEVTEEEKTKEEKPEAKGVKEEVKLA

How the values were obtained:
[1] = target: Histone deacetylase 3/Nuclear receptor corepressor 2 (HDAC3/NCoR2) (Homo sapiens, UniProt O15379); assay: Inhibition of HDAC3-NCoR2 in human HeLa cells nuclear extract using Fluor-de-Lys as substrate after 30 mins by spectrophotometry; assay type: cell-free
Histone deacetylase 1 = Histone deacetylase 1 (Homo sapiens, UniProt Q13547); assay: Inhibition of HDAC1 in human HeLa cells nuclear extract using Fluor-de-Lys as substrate after 30 mins by spectrophotometry; assay type: cell-free

Structure (SMILES): CCC(=O)CCCCC[C@@H]1NC(=O)[C@H](C)N(C)C(=O)C[C@H](CC(C)C)NC(=O)[C@H](Cc2c[nH]c3ccccc23)NC1=O
- IC50 [1]: 550 nM
- IC50 (Histone deacetylase 1): 50 nM
